System: Mino MCL cells
Test: CellTiter-Blue cell viability, combination (CI analysis)
Type: cell-based, human
Conditions: 72 hours, single agent, at Fa of combination dose 10.0E−6/25.0E−6
Description: Z138 and Mino MCL cells were treated with varying concentrations of Compound A and the BTKi Ibrutinib for 72 hours. Cell viability was next assessed using the CellTiter-Blue reagent (Promega). The results of these experiments are shown in FIG. 8 and in the Table below.

## C=CC(=O)N1CCC[C@@H](n2nc(-c3ccc(Oc4ccccc4)cc3)c3c(N)ncnc32)C1 [ibrutinib, reference compound]
  Dm (PCI-32765): 41.3E−6
